According to patent US12281328B2, “Photoreceptor cells for the treatment of retinal diseases” (Hadasit Medical Research Services and Development Ltd., priority 2017, dated 2025):

System: hESC-derived spheroid bodies (SBs)
Experiment: Quantity and morphology of SBs with addition of HSA to the culture medium
Format: cell-based, human
Protocol: SBs were generated under non-adherent conditions (day 0) from cord-feeder-conditioned media culture systems, or from feeder free laminin 521 culture systems, as described above. SBs were cultured in the following medium: NUTRISTEM® minus medium (Biological industries, Beit Haemek, Israel) supplemented with 50 U/ml penicillin and 50 μg/ml streptomycin (Gibco-BRL, Carlsbad, Calif.). In the initial 0 to 6 days of SBs culture (under non-adherent conditions), the medium was supplemented with 10 mM nicotinamide (Sigma, St. Louis, Mo.). It was further supplemented with the addition of the following factors in different combinations: 10 mM nicotinamide (Sigma, St. Louis, Mo.), 3 μM endo-IWR 1 (IWR1e; TOCRIS, a biotechne brand, Minneapolis, Minn.), 20 ng/ml bFGF (PeproTech Inc., Rocky Hill, N.J.), 5 ng/ml IGF1 (R&D Systems Inc., Minneapolis, Minn.) and 3 μM CHIR99021 (CHIR; PeproTech Inc., Rocky Hill, N.J.). Various combinations of the following supplements were also evaluated: 0.5-1% HSA (Albumin 25%, Octapharma, Elersvagen, Sweden), 1% MATRIGEL™ (growth-factor-reduced; BD Biosciences), 1-10 μg/ml Laminin 511 and/or 521 (BioLamina, Sundbyberg, Sweden), 3-10 μg/ml Collagen human (Sigma St. Louis Mo.) for 2 to 8 weeks.
The addition of HSA to the culture medium of the SBs was also analyzed. FIG. 36 provides an illustration of the timeline and agents that were analyzed. The quantity of SBs that were generated was increased with the addition of HSA.

[1] = addition of HSA to SB culture medium

For “HSA: human serum albumin, 0.5-1% (Albumin 25%, Octapharma), supplement of the SB culture medium”, the “size and compaction of SBs” value (NIC+IWR1e+HSA vs NIC+IWR1e, FIG. 37A, 37B) was “larger and more compacted”, the “quantity of SBs generated” value [1] was “increased” and the “yield of retinal progenitor cells and efficiency of differentiation” value [1] was “improves the yield of retinal progenitor cells and also the efficiency of differentiation”.
